Results as given in US20110275576A1 (published 2011).

System: A549 cells
Test: MTS assay, proliferation of A549 cells
Assay type: cell-based, human
Conditions: statement on Table 1

Structure (SMILES): CC1=C2C[C@H]3[C@@H](CC=C4C[C@@H](O)CC[C@@]43C)[C@@H]2CC[C@]12O[C@@H]1C[C@H](C)CN[C@H]1[C@H]2C [cyclopamine, reference compound]
- proliferation of A549 cells: reduced the proliferation of A549 cells
